# Reference: US4808517A (priority 1985, dated 1989)
# Test system: submitochondrial particles
# Conditions: 25° C., 1-cm cuvette, absorbance 2 min after ATP addition
row,Compound,"Toxicant Dose Response for EC50, Test Results"
1,Cc1cc([N+](=O)[O-])cc([N+](=O)[O-])c1O,"1,260 parts per billion"
2,Lead,280 parts per billion
3,Zinc,"1,600 parts per billion"
